Values quoted from earlier work as cited in US10568890B2, “Lactate-based fulvestrant or fulvestrant derivative oily preparation and preparation method thereof” (Xi'An Libang Pharmaceutical Co., Ltd, priority 2012, dated 2020).

Sequences of proteins named here, by UniProt entry; tags and fusion partners are left off.
UniProt P03372, whole entry: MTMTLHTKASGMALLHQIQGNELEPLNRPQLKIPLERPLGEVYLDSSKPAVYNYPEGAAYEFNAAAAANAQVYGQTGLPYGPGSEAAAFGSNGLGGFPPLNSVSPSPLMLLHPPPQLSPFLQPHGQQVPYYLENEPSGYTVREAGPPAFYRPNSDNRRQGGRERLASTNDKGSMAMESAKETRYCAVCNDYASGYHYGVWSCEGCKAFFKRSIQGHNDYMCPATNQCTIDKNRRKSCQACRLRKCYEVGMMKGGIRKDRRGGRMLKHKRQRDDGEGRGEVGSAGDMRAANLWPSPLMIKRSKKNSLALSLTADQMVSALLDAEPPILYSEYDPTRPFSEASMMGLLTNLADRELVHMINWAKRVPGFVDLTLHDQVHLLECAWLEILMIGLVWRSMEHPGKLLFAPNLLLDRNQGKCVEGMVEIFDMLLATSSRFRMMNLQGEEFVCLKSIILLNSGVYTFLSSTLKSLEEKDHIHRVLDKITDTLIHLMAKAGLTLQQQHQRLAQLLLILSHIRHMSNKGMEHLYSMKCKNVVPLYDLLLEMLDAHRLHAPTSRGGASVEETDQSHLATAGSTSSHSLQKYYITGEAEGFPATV

Molecular target: receptor (ER) (Homo sapiens, UniProt P03372)
Conditions: relative to tamoxifen (TAM); cited from earlier work

C[C@]12CC[C@@H]3c4ccc(O)cc4C[C@@H](CCCCCCCCC[S+]([O-])CCCC(F)(F)C(F)(F)F)[C@H]3[C@@H]1CC[C@@H]2O (stereo partly shown) [fulvestrant]
affinity to a receptor (ER) as compared to TAM: 100 times higher
